Here are results for 9 molecules from PubChem BioAssay AID631 (The Scripps Research Institute Molecular Screening Center, 2007).

By UniProt entry, the sequences of proteins in these tests, tags left out. Residues count along the entry.
UniProt P37231, 232-505 limits assumed: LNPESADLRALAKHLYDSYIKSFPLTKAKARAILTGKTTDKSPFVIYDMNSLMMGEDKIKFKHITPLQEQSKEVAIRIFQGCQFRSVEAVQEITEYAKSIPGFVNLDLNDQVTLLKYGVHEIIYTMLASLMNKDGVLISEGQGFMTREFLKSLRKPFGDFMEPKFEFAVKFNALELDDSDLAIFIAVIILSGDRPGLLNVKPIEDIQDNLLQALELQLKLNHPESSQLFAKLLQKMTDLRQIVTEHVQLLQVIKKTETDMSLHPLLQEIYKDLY
UniProt Q15788, whole entry partner: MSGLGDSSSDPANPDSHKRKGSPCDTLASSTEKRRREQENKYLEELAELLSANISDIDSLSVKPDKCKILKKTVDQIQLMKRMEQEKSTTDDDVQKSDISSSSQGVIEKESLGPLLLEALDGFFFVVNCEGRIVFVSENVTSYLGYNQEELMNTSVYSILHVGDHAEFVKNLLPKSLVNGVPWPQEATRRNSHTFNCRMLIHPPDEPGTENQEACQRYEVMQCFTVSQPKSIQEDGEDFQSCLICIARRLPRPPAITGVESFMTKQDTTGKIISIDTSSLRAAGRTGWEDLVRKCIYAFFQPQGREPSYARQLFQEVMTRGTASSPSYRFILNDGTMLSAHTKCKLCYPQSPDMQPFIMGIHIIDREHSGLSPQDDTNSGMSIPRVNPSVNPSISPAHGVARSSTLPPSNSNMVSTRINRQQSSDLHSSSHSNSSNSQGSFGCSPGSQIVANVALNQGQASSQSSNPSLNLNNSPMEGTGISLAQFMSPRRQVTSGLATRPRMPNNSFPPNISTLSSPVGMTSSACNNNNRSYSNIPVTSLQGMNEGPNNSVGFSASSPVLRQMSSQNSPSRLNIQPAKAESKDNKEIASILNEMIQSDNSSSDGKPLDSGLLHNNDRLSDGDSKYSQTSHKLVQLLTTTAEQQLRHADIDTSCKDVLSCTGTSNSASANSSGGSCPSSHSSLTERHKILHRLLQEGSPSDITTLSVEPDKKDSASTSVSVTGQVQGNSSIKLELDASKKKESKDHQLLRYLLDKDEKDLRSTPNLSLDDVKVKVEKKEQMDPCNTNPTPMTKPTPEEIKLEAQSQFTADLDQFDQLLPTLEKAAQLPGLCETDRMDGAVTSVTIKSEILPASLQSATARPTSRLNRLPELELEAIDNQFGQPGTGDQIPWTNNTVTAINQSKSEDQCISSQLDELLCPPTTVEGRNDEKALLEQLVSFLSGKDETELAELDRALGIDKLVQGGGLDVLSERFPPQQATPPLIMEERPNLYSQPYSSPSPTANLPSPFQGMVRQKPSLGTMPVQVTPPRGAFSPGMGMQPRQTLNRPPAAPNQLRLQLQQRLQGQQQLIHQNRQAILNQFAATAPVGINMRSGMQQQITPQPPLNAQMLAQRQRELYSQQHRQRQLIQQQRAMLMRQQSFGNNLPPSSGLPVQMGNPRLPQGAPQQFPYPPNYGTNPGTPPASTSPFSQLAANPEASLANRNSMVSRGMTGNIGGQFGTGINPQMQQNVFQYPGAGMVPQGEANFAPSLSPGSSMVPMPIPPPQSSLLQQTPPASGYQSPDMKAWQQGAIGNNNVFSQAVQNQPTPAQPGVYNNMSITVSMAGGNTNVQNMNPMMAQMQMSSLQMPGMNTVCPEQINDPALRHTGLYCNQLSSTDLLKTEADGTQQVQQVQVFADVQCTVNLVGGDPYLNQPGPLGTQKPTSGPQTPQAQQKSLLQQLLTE

The entries are a selection whose mix differs from that of the whole data set. Some tests of the compounds listed are not included; inactive here does not mean inactive elsewhere. Calls of active or inactive are those of the source. No stated cut-off is given here; in the data, active means activation above about 19%; inactive means the rest.

In this assay the target is Peroxisome proliferator-activated receptor gamma (Homo sapiens) (UniProt P37231). Nature of the assay: enhancers of SRC-1 binding to PPARgamma – biochemical, primary screen (AID 631).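 Further: 0% = DMSO and 100% = reference agonist.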 Particulars: PPARgamma-SRC-1 coactivator recruitment biochemical assay; at 8 µM; hits give high values.
As to `CN(C)c1cccc(C(=O)NCC2(N(C)C)CCCCC2)c1`, the activation was inactive: 2%. Turning to `O=C(OC1CN2CCC1CC2)C(CO)(c1ccccc1)c1ccccc1` (centres undefined), the activation is inactive: 0.1%.

In the case of `COc1cccc(C(=O)NCC2(N3CCCCC3)CCCCC2)c1`, the activation was inactive: 4.6%. The figure for `C=CCN1CCN(CCOC(=O)C(O)(c2ccccc2)c2ccccc2)CC1` is inactive: 7.9%; for `CCN1CCCC(OC(=O)C2(O)c3ccccc3C=Cc3ccccc32)C1` (centres undefined) it is inactive: -6.8%; for `CN(C)C1CCCC1OC(=O)C(O)(c1ccccc1)c1ccccc1` (centres undefined) it is inactive: -0.9%. The figure for `Cc1ccccc1C(=O)NCC1(N2CCCCC2)CCCCC1` is inactive: 3.2%. In the case of `CC(C)N1C(=O)CC2(CCN(CCOC(=O)C(O)(c3ccccc3)c3ccccc3)CC2)C1=O`, the activation is inactive: -9.2%. As for `O=C(NCC1(N2CCCCC2)CCCCC1)c1cc([N+](=O)[O-])ccc1Cl`, the activation was inactive: 1.3%.
